From PMC7123434, “Development of High-Throughput Fluorescent-Based Screens to Accelerate Discovery of P2X Inhibitors from Animal Venoms” (Journal of Natural Products, 2019)

How the values were obtained:
[1] = biological target: T1, hP2X4 (Homo sapiens, UniProt Q99571); test: YOPRO-1 dye uptake assay on HEK293-hP2X4 cells; format: cell-based; details: HEK-hP2X4; YOPRO-1 HTS assay
T1 construct: expressed in transfected cells
T1 sequence (Q99571 1-388): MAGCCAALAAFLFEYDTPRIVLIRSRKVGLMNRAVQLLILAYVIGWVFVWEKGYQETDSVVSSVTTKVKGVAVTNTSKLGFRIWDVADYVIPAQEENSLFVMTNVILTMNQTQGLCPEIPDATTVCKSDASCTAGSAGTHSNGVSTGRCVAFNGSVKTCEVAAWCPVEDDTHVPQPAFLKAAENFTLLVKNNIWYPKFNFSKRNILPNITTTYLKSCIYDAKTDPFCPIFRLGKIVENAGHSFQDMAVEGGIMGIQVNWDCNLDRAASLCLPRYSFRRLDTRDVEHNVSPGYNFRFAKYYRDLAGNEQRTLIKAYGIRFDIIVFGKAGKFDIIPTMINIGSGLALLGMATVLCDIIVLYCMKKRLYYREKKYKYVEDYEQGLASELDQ
Method: This method was adapted and further optimized from Patrice et al.[50] One day prior to measurements, HEK293-hP2X4 and HEK293-hP2X7 cells were plated on poly-D-lysine-coated 96-well plates at 2 × 10^4 cells/well. After 24 h, the culture media was aspirated, and 80 μL of YOPRO-1 assay buffer (145 mM NaCl, 5 mM KCl, 0.1 mM CaCl2, 13 mM D-glucose, 10 mM HEPES; pH 7.35) with 2 μM YOPRO-1 was applied. […] The injection volume was 10 μL with a 150 μL pipet height and rate of 4 (∼62 μL/s). The run time was 300 s with a 3.9 s interval, 6 reads/well, and 77 reads in total. Measurement parameters were as follows: bottom reading, excitation wavelength (490 nm), emission wavelength (520 nm).

[2] = biological target: T1, hP2X4; test: Fura-2 AM [Ca2+]i assay on 1321N1-hP2X4 cells; format: cell-based; details: Fura-2 AM HTS assay

## Cc1ccc(S(=O)(=O)N2c3ccccc3Oc3ccccc32)cc1 [PSB12062]
[1]
  IC50: 760 nM
[2]
  IC50: 420 nM
